Laboratory results from US7994121B2, “Stable analogs of peptide and polypeptide therapeutics” (Trustees of Tufts College, priority 2003, dated 2011).

Sequences of proteins named here, by UniProt entry; tags and fusion partners are left off. Residues count along the entry.
UniProt P43220, 24-463: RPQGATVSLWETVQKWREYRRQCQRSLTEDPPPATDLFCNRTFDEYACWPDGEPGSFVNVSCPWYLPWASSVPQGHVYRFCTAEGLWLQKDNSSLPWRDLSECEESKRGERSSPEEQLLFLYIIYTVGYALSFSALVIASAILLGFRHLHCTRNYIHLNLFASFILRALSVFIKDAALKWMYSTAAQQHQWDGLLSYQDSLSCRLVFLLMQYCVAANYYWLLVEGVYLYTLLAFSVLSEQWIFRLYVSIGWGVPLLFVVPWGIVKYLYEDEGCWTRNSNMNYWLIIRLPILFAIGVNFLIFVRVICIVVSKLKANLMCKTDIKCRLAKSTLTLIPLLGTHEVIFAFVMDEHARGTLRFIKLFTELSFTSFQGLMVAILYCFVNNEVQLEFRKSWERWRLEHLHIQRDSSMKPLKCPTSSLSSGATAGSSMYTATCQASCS

Target: T1, human GLP-1 receptor (Homo sapiens, UniProt P43220)
T1 construct: expressed in transfected cells; host or cells: COS-7
Experiment: cAMP production in COS-7 cells transiently transfected with human GLP-1 receptor
Type: cell-based
Settings: analog 10 μM vs native GLP-1 0.3 μM, one hour at room temperature
Procedure: Further analysis is provided in the right hand panel which summarizes an assay to ascertain whether GLP-1 (3DMA) potentiates GLP-1 signaling in a manner similar to the native peptide. COS-7 cells (approx 10^6/10 cm plate) were transiently transfected with cDNA encoding the human GLP-1 receptor. One day after transfection, the cells were trypsinized and seeded in 24-well plates (density of approx 10^5/well). Two days following transfection, the cells were incubated for one hour at room temperature either with native GLP-1 (0.3 μM), GLP-1 (3DMA) (10 μM), or in the absence of either peptide. cAMP content, which correlates with receptor-mediated signaling, was measured in the cell lysate by proximity scintillation radioimmunoassay.
FIG. 4 summarizes similar experiments in which the activity of GLP-1 (BM) was measured. Briefly, COS-7 cells (approx 10^6/10 cm plate) were transiently transfected with cDNA encoding the human GLP-1 receptor. One day after transfection, the cells were trypsinized and seeded in 24-well plates (density of approx 10^5/well). Two days following transfection, the cells were incubated for one hour at room temperature either with native GLP-1 (0.3 μM), GLP-1 (BM) (10 μM), or in the absence of either peptide. cAMP content, which correlates with receptor-mediated signaling, was measured in the cell lysate by proximity scintillation radioimmunoassay.

GLP-1 (BM): GLP1(7-37) analog wherein the P′1 glutamic acid is substituted by 3-butyl-methyl-glycine
signaling via the GLP-1 receptor (cAMP content): potentiated signaling via the GLP-1 receptor to an extent indistinguishable from native GLP-1; also recorded: substantially identical signaling potential

Entries after “also recorded” stand apart in the source; their conditions may differ.
